The list shows a part of the results, in another mix than the full data. Records with an inconclusive call do not appear. Calls of active or inactive are those of the source. Calls follow the shape of the dose curve; as a rule, active = well fitted activation curve with a large enough effect; inconclusive = small, poorly fitted or top-dose-only effect; inactive = no such curve, though single readings can be large or run the other way.

The test in a line: qHTS assay for re-activators of p53 using a Luc reporter. Also: % of control where 0% means no effect; nearly all actives have a fitted effect of over 45% in size. The conditions noted are these: H1299 p53-A138V BP100-luciferase reporter, luminescence, 24 h; at 92.2 µM (top of the series). From the text:
The p53 tumor suppressor plays a key role in suppression of tumorigenesis and in human carcinogenesis. It is frequently found inactivated in human cancers, mainly by point mutation. These point mutations are found in a wide variety of human cancers and a majority of them affect the DNA binding domain of the protein. The point mutations either alter native p53 conformation or abolish DNA contact. Additionally, cancer cells with p53 mutations are more resistant to chemo-radiation therapies. In order to find activators to reactivate this important protein, a cell-based screen for p53-dependent luciferase-reporter expression was developed. A p53-null H1299 lung cancer cell line was stably co-transfected with a temperature sensitive p53 mutant, p53-A138V, and a p53-responsive BP100-luciferase reporter. This cell model has previously been characterized in a gene chip profiling experiment for p53 activation. By lowering the culture temperature from 37 deg C (mutant p53 conformation) to 32 deg C (w.t. p53 conformation), a 30-60 fold increase in activation of luciferase activity is observed. At assay temperate, 37 deg C, basal reporter expression is very low and after the addition of detection reagent, a luminescent read-out is carried out. NIH Chemical Genomics Center [NCGC] NIH Molecular Libraries Probe Production Centers Network [MLPCN] MLPCN Grant: DA031088-01A1 Assay Provider (PI): Yi Sung, University of Michigan at Ann Arbor
5ul of 1000 cells per well are dispensed in all wells except column 4, into white solid-bottom TC-treated Kalypsys plates. The cells are kept in Opti-MEM and supplemented with 10% FBS and dispensed using a Multidrop (Thermo). Then using the Kalypsys pin-tool, 23nl of compounds are pinned. The compounds are starting concentration at 10mM, with 1:5 dilution, 4 points, and the control compound nocodazole is pinned in column 1 at 25mM, 1:3 dilution, in duplicate, 25mM nocodazole is pinned in column 2. Please note, all concentrations are working concentrations. 5ul of 1pM purified luciferase enzyme is dispensed using the Kalypsys dispenser in column 4. Plates are incubated for 24 hrs at 37 deg C, 5% CO2, and 95% humidity. Then 4ul of the detection reagent Amplite (ABD Bioquest) is added using the Kalypsys dispenser. Plates are incubated for 10 min at ambient room temperature and are then read on the ViewLux (Perkin Elmer) using a clear filter for a luminescent read-out.
Background: In qHTS, concentration-response curves come from the screen itself.
As for `COc1ccccc1OP(C)(=O)Nc1ccccc1Br` (stereo not drawn), the activity change, positive = activation is inactive: 0.442%. Under `CC(C)(C)c1ccc(OP(C)(=O)O)cc1` stands inactive: -0.802%; under `CP(=O)(Nc1ccc(Cl)cc1)Oc1ccc(F)cc1` (stereo not drawn), inactive: 7.94%. In the case of `CN(C)C(=O)c1c([N+](=O)[O-])cc([N+](=O)[O-])cc1[N+](=O)[O-]`, the activity change, positive = activation was inactive: -8.29%. Under `CCN(CC)CC(O)COC(=O)C(O)(c1ccccc1)C1CCCCC1` (stereo not drawn) stands inactive: -20.8%; under `COc1ccc(OP(C)(=O)Nc2ccc(Br)cc2)cc1` (stereo not drawn), inactive: 1.12%. Consider `COc1ccccc1OP(C)(=O)Nc1c(C)n(C)n(-c2ccccc2)c1=O` (stereo not drawn), for which the activity change, positive = activation is inactive: 7.19%. With `O=C(OCCCN1CCCC1)C(O)(c1ccccc1)C1CCCCC1` (stereo not drawn), the activity change, positive = activation was inactive: -8.65%. Take `CP(=O)(Oc1ccccc1)N1CCOC1=O` (stereo not drawn): the activity change, positive = activation was inactive: 5.27%. In the case of `CCc1ccc(OP(C)(=O)Nc2cccnc2)cc1` (stereo not drawn), the activity change, positive = activation is inactive: -2.19%.

Take `CCOC(=O)c1ccc(NP(C)(=O)Oc2ccc(Cl)cc2)cc1` (stereo not drawn): the activity change, positive = activation is inactive: -6.01%. For `CP(=O)(OC12CC3CC(CC(C3)C1)C2)OC12CC3CC(CC(C3)C1)C2`, the activity change, positive = activation is inactive: 17.9%.

`Cc1nc2ccc3ccccc3c2o1.O=[N+]([O-])c1cc([N+](=O)[O-])c(O)c([N+](=O)[O-])c1`: the activity change, positive = activation was inactive: -53.7%. Take `CP(=O)(Nc1ccc(Cl)cc1Cl)Oc1ccccc1` (stereo not drawn): the activity change, positive = activation was inactive: -1.07%.

Take `CP(=O)(OCCOc1ccccc1)OCCOc1ccccc1`: the activity change, positive = activation was inactive: -1.64%. `Cc1cc(C)cc(OP(C)(=O)Nc2cccc(C(F)(F)F)c2)c1` (stereo not drawn): the activity change, positive = activation is inactive: -0.561%. `COc1ccccc1OP(C)(=O)Nc1ccc(C)c(C)c1` (stereo not drawn): the activity change, positive = activation is inactive: -1.67%. `COc1ccc(OP(C)(=O)Nc2ccccc2Br)cc1` (stereo not drawn): the activity change, positive = activation was inactive: -5.73%. With `Cc1c(NP(C)(=O)Oc2ccc(C(C)C)cc2)c(=O)n(-c2ccccc2)n1C` (stereo not drawn), the activity change, positive = activation was inactive: -5.01%. As for `O=[N+]([O-])c1cc([N+](=O)[O-])c(Nc2ccccn2)c([N+](=O)[O-])c1`, the activity change, positive = activation was inactive: -11.5%. In the case of `CP(=O)(Nc1ccccn1)Oc1ccccc1` (stereo not drawn), the activity change, positive = activation was inactive: -7.07%. Under `COc1ccccc1OP(C)(=O)Nc1ccc(C)cc1C` (stereo not drawn) stands inactive: -0.702%; under `CCc1ccc(OP(C)(=O)O)cc1`, inactive: -6.42%; under `COc1ccccc1OP(C)(=O)Nc1ccc(Br)cc1` (stereo not drawn), inactive: 1.79%. On to `COc1ccc(OP(C)(=O)Nc2ccccn2)cc1` (stereo not drawn), for which the activity change, positive = activation was inactive: -1.54%.

Regarding `CN(C)CCOC(=O)C(O)(c1ccccc1)C1CCCC1` (stereo not drawn), the activity change, positive = activation was inactive: -1.36%. For `O=C(OCCN1CCN(CCOCc2ccccc2)CC1)C(O)(c1ccccc1)c1ccccc1`, the activity change, positive = activation was inactive: -6.5%. Regarding `CP(=O)(Nc1ccccc1F)Oc1ccccc1` (stereo not drawn), the activity change, positive = activation was inactive: -1.02%. For `CC(C)c1ccc(OP(C)(=O)Nc2ccc(SC(F)(F)F)cc2)cc1` (stereo not drawn), the activity change, positive = activation was inactive: -0.0053%. Turning to `CCN(CC)CCCOC(=O)C(O)(c1ccccc1)C1CCCCC1` (stereo not drawn), the activity change, positive = activation is inactive: -8.08%.

With `CP(=O)(Nc1ccccc1)Oc1ccc(F)cc1` (stereo not drawn), the activity change, positive = activation was inactive: 2.5%. Consider `CCCCCOc1ccc(NP(C)(=O)Oc2ccc(Cl)cc2Cl)cc1` (stereo not drawn), for which the activity change, positive = activation is inactive: 0.35%. For the compound `CCOC(=O)c1ccc(NP(C)(=O)Oc2ccc(F)cc2)cc1` (stereo not drawn), the activity change, positive = activation was inactive: -7.51%.

Regarding `COc1ccc(OP(C)(=O)Nc2ccc(SC(F)(F)F)cc2)cc1` (stereo not drawn), the activity change, positive = activation is inactive: -4.74%. With `O=[N+]([O-])c1ccc(OP2(=O)COCCO2)cc1` (stereo not drawn), the activity change, positive = activation was inactive: -0.424%.

As to `Cc1cc(-c2cccc3ccccc23)c(C)cn1.O=[N+]([O-])c1cc([N+](=O)[O-])c(O)c([N+](=O)[O-])c1`, the activity change, positive = activation was inactive: -0.838%. On to `COc1ccc(OP(C)(=O)Nc2cccc(Br)c2)cc1` (stereo not drawn), for which the activity change, positive = activation was inactive: -10.8%.

On to `CN(C)CCOC(=O)C(O)(c1ccccc1)C1CCCCC1` (stereo not drawn), for which the activity change, positive = activation was inactive: 3.37%.

As for `COc1ccc(NP(C)(=O)Oc2ccccc2OC)cc1` (stereo not drawn), the activity change, positive = activation was inactive: -0.577%.

On to `CP(=O)(Nc1ccc2c(c1)OCCO2)Oc1ccccc1` (stereo not drawn), for which the activity change, positive = activation is inactive: 24.1%. Next, `Cc1ccccc1NP(C)(=O)Nc1ccccc1C`: inactive: -12.9%; `CP(=O)(Nc1ccc(SC(F)(F)F)cc1)Oc1ccc(F)cc1` (stereo not drawn): inactive: -4.65%; `CCOP(C)(=S)SCC(=O)NC(C)(CC)C(=O)O` (stereo not drawn): inactive: 3.31%.

As for `Cc1nc2ccc3ccccc3c2s1.O=[N+]([O-])c1cc([N+](=O)[O-])c(O)c([N+](=O)[O-])c1`, the activity change, positive = activation is inactive: 2.95%.

For `O=[N+]([O-])c1cc([N+](=O)[O-])c(-n2nnc3ccccc32)c([N+](=O)[O-])c1`, the activity change, positive = activation was inactive: -1.39%.

Turning to `COc1ccccc1OP(C)(=O)Nc1c(C)cccc1C` (stereo not drawn), the activity change, positive = activation was inactive: 7.88%. Turning to `CN1CCCCC1COC(=O)C1(O)c2ccccc2CCc2ccccc21` (stereo not drawn), the activity change, positive = activation was inactive: -13%. For `CCCOc1ccc(NP(C)(=O)Oc2ccc(Cl)cc2)cc1` (stereo not drawn), the activity change, positive = activation was inactive: -3.8%. For the compound `CP(=O)(Nc1ccc(SC(F)(F)F)cc1)Oc1ccccc1` (stereo not drawn), the activity change, positive = activation was inactive: -3.94%. With `CC1=C2N=C(C=C3N=C(C(C)=C4[N-][C@@](C)([C@@H]5N=C1[C@](C)(CCC(=O)NC[C@@H](C)OP(=O)([O-])O[C@H]1[C@@H](O)[C@@H](n6cnc7cc(C)c(C)cc76)O[C@@H]1CO)[C@H]5CC(N)=O)[C@@](C)(CC(N)=O)[C@@H]4CCC(N)=O)[C@@](C)(CC(N)=O)[C@@H]3CCC(N)=O)C(C)(C)[C@@H]2CCC(N)=O.[C-]#N.[Co+3]`, the activity change, positive = activation was inactive: -17.4%. Next, `O=[N+]([O-])c1cc([N+](=O)[O-])c(Nc2nnnn2CCO)c([N+](=O)[O-])c1`: inactive: 6.88%; `CC1=NCCc2c1[nH]c1ccccc21.O=[N+]([O-])c1cc([N+](=O)[O-])c(O)c([N+](=O)[O-])c1`: inactive: -4.71%; `Cc1ccc(C)c(NP(C)(=O)Oc2ccccc2)c1` (stereo not drawn): inactive: -9.89%. With `Cc1cc(C)cc(OP(C)(=O)Nc2ccccn2)c1` (stereo not drawn), the activity change, positive = activation is inactive: -4.79%. As to `CP(=O)(Nc1cccc(Br)c1)Oc1ccccc1` (stereo not drawn), the activity change, positive = activation was inactive: -0.0018%. Turning to `COc1ccccc1OP(C)(=O)Nc1cccc(Br)c1` (stereo not drawn), the activity change, positive = activation is inactive: -1%. Take `CCOC(=O)c1ccc(NP(C)(=O)Oc2cc(C)cc(C)c2)cc1` (stereo not drawn): the activity change, positive = activation is inactive: -2.32%. As for `Cc1cc(C)cc(OP(C)(=O)Nc2ccc(C)cc2C)c1` (stereo not drawn), the activity change, positive = activation is inactive: -1.1%.
